Laboratory results: PMC10350926 (2023)
Like-named read-outs stand apart in the source and are kept apart here.

Protein sequences, listed by entry. Tags and fused reporters are not part of them. Lines headed by an entry give the natural chain unless they say otherwise; changes in a name come on top.
UniProt P21817: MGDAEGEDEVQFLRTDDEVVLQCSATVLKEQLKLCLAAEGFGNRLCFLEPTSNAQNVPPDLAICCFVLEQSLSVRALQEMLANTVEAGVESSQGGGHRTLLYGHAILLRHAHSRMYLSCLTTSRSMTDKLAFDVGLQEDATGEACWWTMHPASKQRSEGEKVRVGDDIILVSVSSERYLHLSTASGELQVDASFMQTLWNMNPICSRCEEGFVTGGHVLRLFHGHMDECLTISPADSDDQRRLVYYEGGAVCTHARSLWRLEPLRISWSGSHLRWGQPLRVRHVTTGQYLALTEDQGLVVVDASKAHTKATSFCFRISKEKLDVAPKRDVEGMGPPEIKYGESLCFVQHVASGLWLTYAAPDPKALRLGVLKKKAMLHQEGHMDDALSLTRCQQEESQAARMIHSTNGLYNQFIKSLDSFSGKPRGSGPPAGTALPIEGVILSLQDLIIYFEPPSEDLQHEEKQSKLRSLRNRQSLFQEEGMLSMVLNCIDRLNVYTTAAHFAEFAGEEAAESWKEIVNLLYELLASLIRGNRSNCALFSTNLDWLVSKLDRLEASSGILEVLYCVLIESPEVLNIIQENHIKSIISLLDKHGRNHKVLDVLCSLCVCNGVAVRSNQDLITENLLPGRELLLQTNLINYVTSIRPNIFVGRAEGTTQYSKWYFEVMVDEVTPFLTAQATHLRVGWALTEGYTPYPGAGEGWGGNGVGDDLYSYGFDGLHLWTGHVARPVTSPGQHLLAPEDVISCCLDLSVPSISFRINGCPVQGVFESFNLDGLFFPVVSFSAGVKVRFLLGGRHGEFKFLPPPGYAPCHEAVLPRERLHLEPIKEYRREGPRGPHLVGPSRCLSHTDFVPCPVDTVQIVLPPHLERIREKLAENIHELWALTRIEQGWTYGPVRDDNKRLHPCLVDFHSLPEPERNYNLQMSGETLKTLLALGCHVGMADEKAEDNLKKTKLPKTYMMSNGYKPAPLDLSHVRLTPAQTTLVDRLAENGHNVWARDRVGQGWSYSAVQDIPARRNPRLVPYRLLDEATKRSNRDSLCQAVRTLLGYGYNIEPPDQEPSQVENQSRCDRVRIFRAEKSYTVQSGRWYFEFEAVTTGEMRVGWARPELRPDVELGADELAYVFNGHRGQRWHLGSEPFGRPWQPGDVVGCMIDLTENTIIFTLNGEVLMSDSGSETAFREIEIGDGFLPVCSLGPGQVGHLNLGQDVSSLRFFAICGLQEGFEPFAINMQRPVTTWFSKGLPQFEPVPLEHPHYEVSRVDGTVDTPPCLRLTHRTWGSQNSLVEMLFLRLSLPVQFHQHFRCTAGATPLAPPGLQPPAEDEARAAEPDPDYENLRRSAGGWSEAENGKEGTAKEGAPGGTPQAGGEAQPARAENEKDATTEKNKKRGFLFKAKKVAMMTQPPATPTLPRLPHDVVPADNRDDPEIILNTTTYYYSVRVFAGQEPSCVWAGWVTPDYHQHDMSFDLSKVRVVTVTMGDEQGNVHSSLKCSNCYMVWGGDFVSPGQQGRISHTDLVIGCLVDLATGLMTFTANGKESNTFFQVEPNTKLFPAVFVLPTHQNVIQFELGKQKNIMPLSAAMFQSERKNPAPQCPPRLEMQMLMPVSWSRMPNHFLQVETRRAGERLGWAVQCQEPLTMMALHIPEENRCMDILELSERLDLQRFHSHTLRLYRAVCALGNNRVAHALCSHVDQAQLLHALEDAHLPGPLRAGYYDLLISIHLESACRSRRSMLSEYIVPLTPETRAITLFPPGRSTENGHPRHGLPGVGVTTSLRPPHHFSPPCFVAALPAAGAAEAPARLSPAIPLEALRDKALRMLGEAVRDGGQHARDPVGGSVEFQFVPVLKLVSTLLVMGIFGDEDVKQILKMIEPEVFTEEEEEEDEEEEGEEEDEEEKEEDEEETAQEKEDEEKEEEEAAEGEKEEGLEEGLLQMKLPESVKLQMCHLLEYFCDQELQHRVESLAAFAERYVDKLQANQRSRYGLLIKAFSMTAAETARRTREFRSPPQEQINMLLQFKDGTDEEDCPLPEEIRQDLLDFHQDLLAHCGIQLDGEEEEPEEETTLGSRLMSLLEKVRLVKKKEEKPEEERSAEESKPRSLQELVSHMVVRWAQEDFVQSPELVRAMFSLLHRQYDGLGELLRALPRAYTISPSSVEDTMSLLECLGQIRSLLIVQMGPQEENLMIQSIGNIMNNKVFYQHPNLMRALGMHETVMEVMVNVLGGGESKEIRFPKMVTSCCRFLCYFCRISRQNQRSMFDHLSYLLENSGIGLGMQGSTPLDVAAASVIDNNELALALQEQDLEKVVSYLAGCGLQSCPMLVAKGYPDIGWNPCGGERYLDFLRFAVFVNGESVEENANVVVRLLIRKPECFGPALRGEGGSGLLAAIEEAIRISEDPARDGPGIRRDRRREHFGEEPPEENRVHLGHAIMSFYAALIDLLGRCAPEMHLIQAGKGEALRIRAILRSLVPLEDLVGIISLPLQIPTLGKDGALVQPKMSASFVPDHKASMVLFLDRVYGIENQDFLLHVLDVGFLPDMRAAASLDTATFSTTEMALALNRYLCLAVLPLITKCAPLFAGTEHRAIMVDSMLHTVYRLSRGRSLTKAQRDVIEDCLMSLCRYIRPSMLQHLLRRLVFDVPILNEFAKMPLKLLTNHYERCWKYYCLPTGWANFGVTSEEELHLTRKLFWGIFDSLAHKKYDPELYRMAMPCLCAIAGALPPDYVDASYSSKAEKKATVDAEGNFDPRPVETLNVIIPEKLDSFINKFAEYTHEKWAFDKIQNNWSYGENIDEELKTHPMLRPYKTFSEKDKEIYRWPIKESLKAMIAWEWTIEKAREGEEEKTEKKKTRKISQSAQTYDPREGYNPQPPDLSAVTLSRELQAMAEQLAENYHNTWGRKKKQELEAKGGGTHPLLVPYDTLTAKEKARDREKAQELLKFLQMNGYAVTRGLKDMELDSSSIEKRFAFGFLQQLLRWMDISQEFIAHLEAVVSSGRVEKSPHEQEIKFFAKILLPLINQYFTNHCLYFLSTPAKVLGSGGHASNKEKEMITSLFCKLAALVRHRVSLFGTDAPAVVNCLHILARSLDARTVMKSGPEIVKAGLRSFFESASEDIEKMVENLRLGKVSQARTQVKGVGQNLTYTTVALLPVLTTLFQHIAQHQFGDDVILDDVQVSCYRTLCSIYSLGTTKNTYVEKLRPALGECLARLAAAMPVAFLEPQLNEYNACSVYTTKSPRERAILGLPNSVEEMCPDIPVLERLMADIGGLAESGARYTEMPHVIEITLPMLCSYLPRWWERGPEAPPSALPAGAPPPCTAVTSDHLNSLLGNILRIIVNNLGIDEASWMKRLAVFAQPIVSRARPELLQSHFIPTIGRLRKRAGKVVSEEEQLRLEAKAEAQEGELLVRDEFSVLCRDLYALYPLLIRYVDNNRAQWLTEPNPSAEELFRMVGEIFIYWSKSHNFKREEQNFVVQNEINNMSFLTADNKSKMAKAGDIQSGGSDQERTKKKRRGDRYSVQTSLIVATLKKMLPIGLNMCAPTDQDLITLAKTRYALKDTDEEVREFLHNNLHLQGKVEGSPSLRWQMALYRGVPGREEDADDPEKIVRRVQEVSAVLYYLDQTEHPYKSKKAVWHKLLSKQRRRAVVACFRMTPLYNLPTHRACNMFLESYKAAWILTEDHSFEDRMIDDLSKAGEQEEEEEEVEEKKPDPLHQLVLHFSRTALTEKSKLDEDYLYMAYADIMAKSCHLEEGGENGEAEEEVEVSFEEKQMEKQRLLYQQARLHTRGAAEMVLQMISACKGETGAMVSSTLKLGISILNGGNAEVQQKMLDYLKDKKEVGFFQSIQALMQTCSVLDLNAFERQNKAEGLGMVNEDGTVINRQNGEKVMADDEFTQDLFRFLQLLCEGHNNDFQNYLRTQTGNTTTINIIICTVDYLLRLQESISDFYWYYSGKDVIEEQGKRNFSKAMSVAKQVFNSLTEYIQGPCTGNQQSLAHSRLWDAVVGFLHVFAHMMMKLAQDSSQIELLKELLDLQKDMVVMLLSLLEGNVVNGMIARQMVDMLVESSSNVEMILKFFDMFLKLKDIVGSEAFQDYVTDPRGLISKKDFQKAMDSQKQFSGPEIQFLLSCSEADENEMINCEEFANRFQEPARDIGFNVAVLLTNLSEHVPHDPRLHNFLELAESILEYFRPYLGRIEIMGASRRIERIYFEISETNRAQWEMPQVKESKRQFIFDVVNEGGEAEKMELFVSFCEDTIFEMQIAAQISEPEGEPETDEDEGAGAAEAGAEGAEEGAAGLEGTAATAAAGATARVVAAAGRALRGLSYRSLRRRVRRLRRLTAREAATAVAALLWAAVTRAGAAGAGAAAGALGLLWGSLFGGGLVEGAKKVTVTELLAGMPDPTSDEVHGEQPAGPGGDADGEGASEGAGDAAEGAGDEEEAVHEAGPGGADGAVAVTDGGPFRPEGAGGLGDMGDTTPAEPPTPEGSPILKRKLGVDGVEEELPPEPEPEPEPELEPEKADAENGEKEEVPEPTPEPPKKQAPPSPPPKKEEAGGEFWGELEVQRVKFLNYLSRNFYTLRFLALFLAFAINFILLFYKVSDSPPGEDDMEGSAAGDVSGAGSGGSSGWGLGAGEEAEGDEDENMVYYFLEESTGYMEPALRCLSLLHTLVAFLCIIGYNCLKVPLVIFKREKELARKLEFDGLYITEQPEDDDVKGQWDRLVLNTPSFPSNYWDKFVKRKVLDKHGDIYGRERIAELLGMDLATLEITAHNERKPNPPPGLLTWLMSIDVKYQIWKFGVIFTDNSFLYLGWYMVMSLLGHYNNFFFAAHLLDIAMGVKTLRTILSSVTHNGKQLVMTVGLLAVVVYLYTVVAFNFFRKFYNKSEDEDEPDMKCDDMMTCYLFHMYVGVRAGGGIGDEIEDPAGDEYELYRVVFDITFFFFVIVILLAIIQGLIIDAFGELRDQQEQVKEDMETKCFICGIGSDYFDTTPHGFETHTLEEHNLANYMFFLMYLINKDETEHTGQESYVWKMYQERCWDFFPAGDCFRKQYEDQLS

Legend:
RyR1 [1] = target: T1, RyR1 (Homo sapiens, UniProt P21817); test: [35S]-calstabin1 radioligand filter binding to immunoprecipitated RyR1
RyR1 [2] = target: T1, RyR1; test: as above; remark: listed apart in the source

| Kd (RyR1 [1]) [nM] | Kd (RyR1 [2]) [nM] | Binder |
| --- | --- | --- |
| 235 |  | calstabin1 (FKBP12) (protein, RyR1 from essential tremor cerebellum, PKA-phosphorylated S2844, oxidized and nitrosylated) not shown |
|  | 79.1 | calstabin1 (FKBP12) (protein) not shown |
